The list shows a part of the results, in another mix than the full data. Some tests of the compounds listed are not included; inactive here does not mean inactive elsewhere. Active and inactive are the calls of the source.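 Rule for the calls: active = every replicate reaching a set inhibition limit, whatever the replicate mean (cut at about 25% in these data); inconclusive = mean inhibition reaches that limit but some replicates miss it; inactive = the rest.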
Each compound was assayed against Protein AF-9 (Homo sapiens) (UniProt P42568) (assay: inhibitors of AF4 peptide binding to AF9, primary screen, biochemical, AlphaScreen, biotin-AF4 peptide, FLAG-AF9, single point (AID 651704;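 note: 0% = plate neutral control median and 100% = total signal loss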)). Details: at 10 µM, active compounds read high.

Chains of the proteins cited; added tags and fusions are not shown.
UniProt P42568, whole entry: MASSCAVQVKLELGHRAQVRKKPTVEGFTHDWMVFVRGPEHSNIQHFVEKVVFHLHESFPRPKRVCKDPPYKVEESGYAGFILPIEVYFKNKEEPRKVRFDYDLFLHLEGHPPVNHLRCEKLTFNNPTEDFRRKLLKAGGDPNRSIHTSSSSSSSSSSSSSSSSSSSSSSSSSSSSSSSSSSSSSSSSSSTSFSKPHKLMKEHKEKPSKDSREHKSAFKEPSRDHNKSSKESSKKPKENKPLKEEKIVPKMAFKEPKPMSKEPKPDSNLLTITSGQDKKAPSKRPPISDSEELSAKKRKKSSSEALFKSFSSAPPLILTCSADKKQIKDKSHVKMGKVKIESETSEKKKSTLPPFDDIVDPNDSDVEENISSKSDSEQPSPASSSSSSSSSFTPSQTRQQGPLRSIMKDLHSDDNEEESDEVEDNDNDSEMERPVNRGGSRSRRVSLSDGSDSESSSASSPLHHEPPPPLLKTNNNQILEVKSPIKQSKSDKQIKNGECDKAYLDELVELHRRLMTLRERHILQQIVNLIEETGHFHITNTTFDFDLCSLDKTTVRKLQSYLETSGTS

SMILES | inhibition
C=C(C)C#CC(O)(C(=O)OC1CCN(C)CC1)c1ccccc1 (configuration not stated) | inactive: -2.92%
COc1ccc(Br)c(C(=O)NCC2(N3CCCCC3)CCCCC2)c1 | inactive: -2.84%
CC(C)Oc1ccc(C(=O)NCC2(N(C)C)CCCCC2)cc1 | inactive: -2.38%
O=C(OCCN1CCCC1)C(O)(c1ccccc1)c1ccccc1 | inactive: -2.56%
CN(C)C1(CNC(=O)c2ccc(Br)cc2)CCCCC1 | inactive: 0.312%
COc1cc(C(=O)NCC2(N(C)C)CCCCC2)c([N+](=O)[O-])cc1OC | inactive: -1%
COc1cccc(C(=O)NCC2(N3CCCCC3)CCCCC2)c1 | inactive: -1.21%
COc1ccc(Cl)cc1C(=O)NCC1(N(C)C)CCCCC1 | inactive: -1.1%
O=C(NCC1(N2CCCCC2)CCCCC1)c1cccc(Cl)c1 | inactive: -0.899%
Cc1ccccc1C(=O)NCC1(N2CCCCC2)CCCCC1 | inactive: 3.72%
CN(C)C1CCCC1OC(=O)C(O)(c1ccccc1)c1ccccc1 (configuration not stated) | inactive: 4.74%
CN(C)c1ccc(C(=O)NCC2(N(C)C)CCCCC2)cc1 | inactive: -0.768%
C=CCN1CCN(CCOC(=O)C(O)(c2ccccc2)c2ccccc2)CC1 | inactive: 0%
O=C(NCC1(N2CCCCC2)CCCCC1)c1cc(F)c(F)cc1Cl | inactive: 2.19%
COc1ccc(C(=O)NCC2(N(C)C)CCCCC2)cc1 | inactive: -2.83%
Cc1cc(C(=O)NCC2(N3CCCCC3)CCCCC2)ccc1[N+](=O)[O-] | inactive: 1.29%
O=C(NCC1(N2CCCCC2)CCCCC1)c1cccc(Br)c1 | inactive: -0.663%
O=C(NCC1(N2CCCCC2)CCCCC1)c1cc([N+](=O)[O-])ccc1Cl | inactive: 2.83%
CN1[C@@H]2CC[C@H]1CC(OC(=O)C(O)(c1ccccc1)c1ccccc1)C2 (some centres not stated) | inactive: 2.38%
CCN(CC)CC(C)C(C)OC(=O)C(O)(c1ccccc1)c1ccccc1 (configuration not stated) | inactive: -4.21%
COc1cc(SC)ccc1C(=O)NCC1(N(C)C)CCCCC1 | inactive: 1.3%
Cc1ccc(C(=O)NCC2(N3CCCCC3)CCCCC2)cc1 | inactive: -27.8%

Source: PubChem BioAssay AID651704 (Broad Institute, 2012)
